For this assay, the target named is T1, 3-hydroxy-3-methylglutaryl-coenzyme A reductase (Homo sapiens, UniProt P04035).
T1 sequence (P04035 whole entry): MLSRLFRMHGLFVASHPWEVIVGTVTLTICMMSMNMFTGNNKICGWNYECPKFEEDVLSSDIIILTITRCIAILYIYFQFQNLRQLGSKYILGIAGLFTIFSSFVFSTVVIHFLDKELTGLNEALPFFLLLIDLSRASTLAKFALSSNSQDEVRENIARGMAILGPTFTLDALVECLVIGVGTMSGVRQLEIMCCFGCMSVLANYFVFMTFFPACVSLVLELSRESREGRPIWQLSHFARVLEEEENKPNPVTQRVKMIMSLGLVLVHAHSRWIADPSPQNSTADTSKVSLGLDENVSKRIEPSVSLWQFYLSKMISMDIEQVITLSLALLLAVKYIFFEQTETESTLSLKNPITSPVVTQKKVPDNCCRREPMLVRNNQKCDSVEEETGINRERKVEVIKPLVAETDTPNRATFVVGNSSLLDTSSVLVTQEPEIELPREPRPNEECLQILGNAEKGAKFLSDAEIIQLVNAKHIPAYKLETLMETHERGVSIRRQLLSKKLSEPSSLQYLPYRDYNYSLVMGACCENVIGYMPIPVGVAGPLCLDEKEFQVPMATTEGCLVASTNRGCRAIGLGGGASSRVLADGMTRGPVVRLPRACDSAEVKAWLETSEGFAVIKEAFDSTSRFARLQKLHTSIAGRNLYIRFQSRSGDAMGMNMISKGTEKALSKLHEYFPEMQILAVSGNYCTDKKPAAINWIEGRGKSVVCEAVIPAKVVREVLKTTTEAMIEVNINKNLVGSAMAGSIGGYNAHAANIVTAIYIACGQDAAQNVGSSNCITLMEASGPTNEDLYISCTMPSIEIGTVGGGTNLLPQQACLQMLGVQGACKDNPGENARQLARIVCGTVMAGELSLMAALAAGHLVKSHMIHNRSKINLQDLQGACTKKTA
As to the kind of experiment: Inhibitory concentration against 3-hydroxy-3-methylglutaryl-CoA reductase.

What is called IC50 is the point on the concentration scale where inhibition reaches its midpoint.

Take `CC(C)c1c(C(=O)Nc2ccccc2)c(-c2ccccc2)c(-c2ccc(F)cc2)n1CC[C@@H](O)C[C@@H](O)CC(=O)O` [ATORVASTATIN]: the midpoint of inhibition, the IC50, lay at 6 nM.
